Source: BindingDB's records for 20599386

Protein sequences, listed by entry. Tags and fused reporters are not part of them. Lines headed by an entry give the natural chain unless they say otherwise; changes in a name come on top.
UniProt P41144: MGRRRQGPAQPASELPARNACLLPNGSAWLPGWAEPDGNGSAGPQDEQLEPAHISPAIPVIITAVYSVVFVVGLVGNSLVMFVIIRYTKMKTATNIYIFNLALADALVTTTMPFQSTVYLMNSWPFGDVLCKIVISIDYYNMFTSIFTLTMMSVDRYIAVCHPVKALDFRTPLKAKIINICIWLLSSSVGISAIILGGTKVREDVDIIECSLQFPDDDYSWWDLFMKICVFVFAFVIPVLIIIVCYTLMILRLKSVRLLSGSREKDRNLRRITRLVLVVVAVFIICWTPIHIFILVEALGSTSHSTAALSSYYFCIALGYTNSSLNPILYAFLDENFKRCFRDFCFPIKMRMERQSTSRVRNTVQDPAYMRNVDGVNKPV

Target: Kappa-type opioid receptor (Cavia porcellus, UniProt P41144)
Assay: Displacement of [3H]U69593 from Sprague-Dawley rat kappa opioid receptor in guinea pig cerebella by liquid scintillation counting

SMILES: CN(C(=O)Cc1ccc(Cl)c(Cl)c1)[C@@H]1CCCC[C@H]1N1CCCC1
- Ki: 1.1 nM
